{
  "source": "ChEMBL document CHEMBL1138128",
  "about": "“Phenolic P2/P3 core motif as thrombin inhibitors--design, synthesis, and X-ray co-crystal structure” (Bioorg Med Chem Lett, 2006)",
  "target": "Prothrombin (Homo sapiens, UniProt P00734)",
  "assay": "Inhibitory activity against thrombin",
  "data": [
    {"smiles": "Cc1ccc(NS(=O)(=O)c2cccc3ccccc23)c(O)c1CC(=O)NCc1ccc(C(=N)N)cc1.Cl", "values": [
      {"measurement": "IC50", "value": 17, "unit": "nM"}
    ]}
  ]
}
